One molecule from ChEMBL document CHEMBL1135659, “Sulfamide-based inhibitors for carboxypeptidase A. Novel type transition state analogue inhibitors for zinc proteases” (J Med Chem, 2002) can be followed below.

For this experiment, the target named is T1, Carboxypeptidase A1 (Bos taurus, UniProt P00730).
T1 sequence (P00730 whole entry): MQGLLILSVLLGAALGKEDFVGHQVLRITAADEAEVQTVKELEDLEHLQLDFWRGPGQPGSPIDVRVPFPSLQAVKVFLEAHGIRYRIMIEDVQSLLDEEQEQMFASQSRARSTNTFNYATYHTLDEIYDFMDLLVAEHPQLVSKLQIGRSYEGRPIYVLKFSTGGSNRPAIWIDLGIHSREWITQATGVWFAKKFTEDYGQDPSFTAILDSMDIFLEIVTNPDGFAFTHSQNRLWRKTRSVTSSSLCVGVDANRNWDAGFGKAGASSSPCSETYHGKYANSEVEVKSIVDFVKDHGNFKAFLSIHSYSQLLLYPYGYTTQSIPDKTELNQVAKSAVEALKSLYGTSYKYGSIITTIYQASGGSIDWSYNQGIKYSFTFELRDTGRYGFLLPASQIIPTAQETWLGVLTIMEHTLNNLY
Nature of the experiment: Inhibitory activity against Carboxypeptidase A.

Broadly, the Ki is a dissociation constant, usually derived from enzyme kinetics or from competition with a known ligand. The low end stands for higher affinity, the high end for lower affinity.

`NS(=O)(=O)N[C@@H](Cc1ccccc1)C(=O)O` returned an inhibitory constant (Ki) of 650 nM.
